Type in all cases: cell-based
In experiment [1] the target is DAT (r) (Rattus norvegicus, UniProt P23977). Briefly: in vitro functional uptake, rat DAT. Conditions: unit inferred.
Experiment [2] has as its target 5-HT (r) (Rattus norvegicus, UniProt P31652). Kind of experiment: in vitro functional uptake, rat 5-HT. Conditions: unit inferred.
Experiment [3] concerns the target T1, DAT (h) (Homo sapiens, UniProt Q01959).
T1 construct: expressed in transfected cells
The protocol:
Functional activity of the compounds was determined in vitro in cellular assays using recombinant human cell lines.

Sequences of proteins named here, by UniProt entry; tags and fusion partners are left off.
UniProt P23977, whole entry: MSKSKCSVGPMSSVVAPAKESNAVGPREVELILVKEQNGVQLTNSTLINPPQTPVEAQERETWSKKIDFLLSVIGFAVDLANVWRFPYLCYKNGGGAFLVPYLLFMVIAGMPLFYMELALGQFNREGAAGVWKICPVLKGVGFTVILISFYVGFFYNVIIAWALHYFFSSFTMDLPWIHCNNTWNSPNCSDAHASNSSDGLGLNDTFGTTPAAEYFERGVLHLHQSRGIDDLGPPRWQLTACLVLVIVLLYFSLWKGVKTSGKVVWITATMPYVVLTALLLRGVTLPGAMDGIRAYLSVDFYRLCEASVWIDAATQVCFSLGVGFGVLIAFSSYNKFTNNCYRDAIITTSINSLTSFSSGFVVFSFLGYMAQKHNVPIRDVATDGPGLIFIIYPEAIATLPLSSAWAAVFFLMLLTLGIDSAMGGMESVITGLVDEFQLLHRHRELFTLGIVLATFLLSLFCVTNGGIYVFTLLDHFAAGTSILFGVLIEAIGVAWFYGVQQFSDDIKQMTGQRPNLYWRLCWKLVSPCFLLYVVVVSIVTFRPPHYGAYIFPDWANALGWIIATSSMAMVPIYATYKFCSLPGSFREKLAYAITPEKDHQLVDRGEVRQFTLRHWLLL
UniProt P31652, whole entry: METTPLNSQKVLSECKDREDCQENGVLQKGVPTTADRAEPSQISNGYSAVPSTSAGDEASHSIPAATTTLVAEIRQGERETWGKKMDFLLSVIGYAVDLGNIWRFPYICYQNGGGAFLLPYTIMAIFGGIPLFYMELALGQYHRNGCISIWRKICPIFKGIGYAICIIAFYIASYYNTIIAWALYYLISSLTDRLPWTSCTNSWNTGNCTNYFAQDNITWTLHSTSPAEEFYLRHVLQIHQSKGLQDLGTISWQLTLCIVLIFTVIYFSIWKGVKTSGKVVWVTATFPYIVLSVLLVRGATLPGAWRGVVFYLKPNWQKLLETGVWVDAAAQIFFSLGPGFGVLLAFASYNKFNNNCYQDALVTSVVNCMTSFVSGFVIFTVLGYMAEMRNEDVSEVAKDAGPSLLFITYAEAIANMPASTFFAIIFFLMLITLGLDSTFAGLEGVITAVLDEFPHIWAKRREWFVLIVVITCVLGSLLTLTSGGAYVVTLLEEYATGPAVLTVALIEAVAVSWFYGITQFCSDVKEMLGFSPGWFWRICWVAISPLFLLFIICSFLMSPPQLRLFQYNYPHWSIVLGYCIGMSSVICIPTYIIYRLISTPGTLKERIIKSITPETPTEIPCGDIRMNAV
UniProt Q01959, whole entry: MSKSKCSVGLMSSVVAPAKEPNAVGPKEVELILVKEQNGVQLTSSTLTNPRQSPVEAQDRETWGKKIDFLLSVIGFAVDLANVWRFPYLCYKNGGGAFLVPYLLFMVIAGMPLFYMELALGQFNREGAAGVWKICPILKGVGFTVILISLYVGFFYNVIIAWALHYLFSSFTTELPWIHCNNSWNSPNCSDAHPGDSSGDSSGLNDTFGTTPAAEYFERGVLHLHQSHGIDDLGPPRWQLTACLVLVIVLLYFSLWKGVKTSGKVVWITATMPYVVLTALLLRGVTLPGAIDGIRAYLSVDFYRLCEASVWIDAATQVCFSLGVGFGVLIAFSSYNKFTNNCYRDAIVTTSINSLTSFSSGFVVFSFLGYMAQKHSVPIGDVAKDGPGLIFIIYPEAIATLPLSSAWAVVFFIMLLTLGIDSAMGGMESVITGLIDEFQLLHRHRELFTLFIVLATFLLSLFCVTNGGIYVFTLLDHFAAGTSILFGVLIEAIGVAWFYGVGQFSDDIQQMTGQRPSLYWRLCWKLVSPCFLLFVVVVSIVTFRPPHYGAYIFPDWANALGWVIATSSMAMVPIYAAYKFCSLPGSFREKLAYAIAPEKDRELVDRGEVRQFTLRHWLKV

Experiment [4] addresses T2, DAT (SLC6A3) (Homo sapiens, UniProt Q01959).
T2 construct: expressed in transfected cells
Kind of experiment: in vitro inhibition profile, IC50 of DAT (uptake assay). The following applies: from Table II IC50. Here is the method: Before the assay, cells expressing DAT are washed once with KRH and equilibrated for 5 min. The cells may be assayed in 24-well plates and incubated for 2-5 min. with tritiated amines. Nontransported inhibitors were preincubated for 5 min, and substrates were applied together with the tritiated substrate.
Experiments to determine the ionic requirements for DAT-mediated uptake are done in KRH buffer, substituting LiCl or choline Cl for NaCl (sodium-dependence) or substituting D-gluconates for NaCl and KCl, and Ca(NO3)2 for CaCl2 (chloride dependence). Cells are washed twice with sodium- or chloride-free KRH before the assay (each wash step at least 5 min). In all transport assays, incubation periods and substrate concentrations are chosen such that uptake obeyed first-order rate kinetics.
Vmax values for amine uptake in stable transfected DAT-cells are determined in parallel assays for at least two amines per experiment and expressed as relative values.

As to `CC(C)C[C@@H](N)C1(c2ccc(Cl)cc2)CCC1` [R-DDMS, reference compound], the EC50 (commonly the concentration at which the effect is half-maximal) amounted to 100 nM in experiment [1] and 1500 nM in experiment [2].

On to `CN[C@H](CC(C)C)C1(c2ccc(Cl)cc2)CCC1` [R-DMS, reference compound], for which the figures for the EC50 in experiment [1] and in experiment [2] were 70 nM and 1500 nM, respectively.

Consider `CC1CCN(CC2(c3ccc(Cl)cc3)CCC2)CC1COc1ccc(C(F)(F)F)cc1` (stereo not shown) [(1)], for which, in experiment [3], the “selectivity for DAT over 5-HT” value is 5000 fold and the “selectivity for DAT over NET” value was 1000 fold. For the same compound, the “fold selectivity of DAT against related receptors (NET, 5-HT)” value in experiment [4] was 175-1200 fold.

The values are drawn from patent US20100093706A1, “MULTIMEDIATOR TRANSPORTER INHIBITORS FOR USE IN TREATMENT OF CENTRAL NERVOUS SYSTEM DISORDERS” (priority 2006, published 2010).
